Data reported in paper PMC3806475, “Marine Derived Hamacanthins as Lead for the Development of Novel PDGFRβ Protein Kinase Inhibitors” (Marine Drugs, 2013).

By UniProt entry, the sequences of proteins in these tests, tags left out. Where a name states a change or a piece, a line headed by the entry shows the natural chain unless it says otherwise. Residues count along the entry.
UniProt P31749: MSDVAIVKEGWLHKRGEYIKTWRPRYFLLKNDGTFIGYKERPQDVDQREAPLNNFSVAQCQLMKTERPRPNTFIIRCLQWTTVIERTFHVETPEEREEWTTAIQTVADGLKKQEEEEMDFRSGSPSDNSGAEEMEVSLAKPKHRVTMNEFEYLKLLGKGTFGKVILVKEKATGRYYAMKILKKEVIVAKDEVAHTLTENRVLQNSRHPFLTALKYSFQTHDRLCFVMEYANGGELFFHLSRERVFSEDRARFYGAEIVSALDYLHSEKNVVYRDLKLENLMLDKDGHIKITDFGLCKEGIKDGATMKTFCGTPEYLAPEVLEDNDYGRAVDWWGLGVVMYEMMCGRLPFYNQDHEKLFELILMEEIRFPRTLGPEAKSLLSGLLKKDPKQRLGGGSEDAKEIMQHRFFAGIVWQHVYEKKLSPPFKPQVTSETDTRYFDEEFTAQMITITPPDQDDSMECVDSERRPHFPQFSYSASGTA
UniProt P08069, 31-1367: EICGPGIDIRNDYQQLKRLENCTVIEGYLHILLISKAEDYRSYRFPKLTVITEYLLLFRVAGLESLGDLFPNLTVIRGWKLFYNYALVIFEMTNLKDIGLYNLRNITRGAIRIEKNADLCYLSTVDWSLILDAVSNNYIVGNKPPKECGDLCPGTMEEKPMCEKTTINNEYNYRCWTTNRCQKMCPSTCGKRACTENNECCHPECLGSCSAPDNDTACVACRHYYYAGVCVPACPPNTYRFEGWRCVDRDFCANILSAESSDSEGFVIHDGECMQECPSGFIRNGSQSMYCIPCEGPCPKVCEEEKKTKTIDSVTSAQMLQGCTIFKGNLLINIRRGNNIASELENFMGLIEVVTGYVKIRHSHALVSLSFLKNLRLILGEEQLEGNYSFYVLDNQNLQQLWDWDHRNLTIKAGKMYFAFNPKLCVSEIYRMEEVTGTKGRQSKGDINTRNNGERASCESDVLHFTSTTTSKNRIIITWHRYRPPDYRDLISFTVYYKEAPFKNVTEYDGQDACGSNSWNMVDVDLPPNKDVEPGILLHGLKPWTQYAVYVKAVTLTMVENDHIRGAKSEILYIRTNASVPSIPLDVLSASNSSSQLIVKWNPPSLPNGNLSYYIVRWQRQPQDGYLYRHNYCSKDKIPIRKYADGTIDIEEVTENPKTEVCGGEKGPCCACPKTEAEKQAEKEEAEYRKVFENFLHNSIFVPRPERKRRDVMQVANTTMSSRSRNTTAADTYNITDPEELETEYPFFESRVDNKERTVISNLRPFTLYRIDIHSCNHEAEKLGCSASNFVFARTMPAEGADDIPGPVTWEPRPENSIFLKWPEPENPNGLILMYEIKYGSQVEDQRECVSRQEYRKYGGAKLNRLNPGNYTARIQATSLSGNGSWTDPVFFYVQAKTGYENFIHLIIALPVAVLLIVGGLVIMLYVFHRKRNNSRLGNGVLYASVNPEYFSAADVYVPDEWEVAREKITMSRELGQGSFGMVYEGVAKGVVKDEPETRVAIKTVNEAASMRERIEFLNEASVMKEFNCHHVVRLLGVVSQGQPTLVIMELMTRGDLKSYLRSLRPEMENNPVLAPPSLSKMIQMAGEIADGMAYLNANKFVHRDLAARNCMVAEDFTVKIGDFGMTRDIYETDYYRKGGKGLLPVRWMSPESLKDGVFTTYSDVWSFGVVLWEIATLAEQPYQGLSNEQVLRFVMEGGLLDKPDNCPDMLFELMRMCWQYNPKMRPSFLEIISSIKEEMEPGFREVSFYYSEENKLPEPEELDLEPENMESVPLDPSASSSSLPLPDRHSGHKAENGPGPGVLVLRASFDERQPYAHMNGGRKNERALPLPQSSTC
UniProt Q02763, 23-1124: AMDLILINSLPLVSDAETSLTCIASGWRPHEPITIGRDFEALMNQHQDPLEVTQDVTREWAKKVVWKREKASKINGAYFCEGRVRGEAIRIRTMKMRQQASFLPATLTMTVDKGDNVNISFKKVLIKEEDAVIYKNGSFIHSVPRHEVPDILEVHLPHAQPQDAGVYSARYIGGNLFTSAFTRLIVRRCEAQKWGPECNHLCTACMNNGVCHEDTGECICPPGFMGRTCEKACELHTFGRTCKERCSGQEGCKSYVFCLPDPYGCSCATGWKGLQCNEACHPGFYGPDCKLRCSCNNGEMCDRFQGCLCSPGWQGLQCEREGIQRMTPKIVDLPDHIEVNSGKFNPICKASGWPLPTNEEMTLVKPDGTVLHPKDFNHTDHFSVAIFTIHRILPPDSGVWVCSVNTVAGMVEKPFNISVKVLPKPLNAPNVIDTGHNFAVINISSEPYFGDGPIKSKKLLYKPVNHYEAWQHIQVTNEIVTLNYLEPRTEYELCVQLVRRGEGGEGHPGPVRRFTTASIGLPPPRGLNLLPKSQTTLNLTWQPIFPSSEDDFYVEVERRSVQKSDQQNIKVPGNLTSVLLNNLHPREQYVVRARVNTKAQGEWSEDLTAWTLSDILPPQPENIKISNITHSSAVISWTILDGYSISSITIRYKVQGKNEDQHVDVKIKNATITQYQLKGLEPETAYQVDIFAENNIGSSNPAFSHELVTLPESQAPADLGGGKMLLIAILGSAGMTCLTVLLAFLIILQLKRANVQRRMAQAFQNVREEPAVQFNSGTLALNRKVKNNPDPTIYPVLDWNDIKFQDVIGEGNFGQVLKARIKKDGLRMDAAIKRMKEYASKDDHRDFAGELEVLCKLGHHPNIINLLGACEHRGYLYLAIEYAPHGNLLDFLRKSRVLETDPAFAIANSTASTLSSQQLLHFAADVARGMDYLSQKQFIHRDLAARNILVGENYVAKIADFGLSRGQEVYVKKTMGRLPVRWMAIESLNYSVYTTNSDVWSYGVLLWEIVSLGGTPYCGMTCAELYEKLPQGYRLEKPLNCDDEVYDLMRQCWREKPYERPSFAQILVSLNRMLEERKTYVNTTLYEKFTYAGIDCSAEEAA

Tests used:
Test in all cases: 33PanQinase protein kinase activity assay
Format in all cases: biochemical
Conditions in all cases: recombinant kinase, 1 µM ATP
ARK5 = molecular target: T1, ARK5 (Homo sapiens, UniProt O60285)
T1 sequence (O60285 1-661): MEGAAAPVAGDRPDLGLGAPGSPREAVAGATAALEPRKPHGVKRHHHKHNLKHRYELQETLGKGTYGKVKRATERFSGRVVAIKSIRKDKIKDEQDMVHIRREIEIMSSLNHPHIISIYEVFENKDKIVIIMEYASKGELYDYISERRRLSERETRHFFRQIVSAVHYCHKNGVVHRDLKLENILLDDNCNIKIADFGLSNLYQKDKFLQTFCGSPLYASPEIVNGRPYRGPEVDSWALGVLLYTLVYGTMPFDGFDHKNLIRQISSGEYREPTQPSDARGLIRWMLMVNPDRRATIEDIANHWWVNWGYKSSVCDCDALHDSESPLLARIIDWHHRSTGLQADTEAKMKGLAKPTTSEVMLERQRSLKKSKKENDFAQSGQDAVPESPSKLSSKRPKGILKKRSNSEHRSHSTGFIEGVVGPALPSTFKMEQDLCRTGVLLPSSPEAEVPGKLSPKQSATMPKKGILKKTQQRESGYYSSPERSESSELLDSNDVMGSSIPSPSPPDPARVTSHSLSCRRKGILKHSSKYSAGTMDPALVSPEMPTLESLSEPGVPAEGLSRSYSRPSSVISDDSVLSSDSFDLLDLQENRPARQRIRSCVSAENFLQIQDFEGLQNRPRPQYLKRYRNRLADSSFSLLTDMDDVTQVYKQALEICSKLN

Aurora-A = molecular target: T2, Aurora-A (Homo sapiens, UniProt O14965)
T2 sequence (O14965 1-403): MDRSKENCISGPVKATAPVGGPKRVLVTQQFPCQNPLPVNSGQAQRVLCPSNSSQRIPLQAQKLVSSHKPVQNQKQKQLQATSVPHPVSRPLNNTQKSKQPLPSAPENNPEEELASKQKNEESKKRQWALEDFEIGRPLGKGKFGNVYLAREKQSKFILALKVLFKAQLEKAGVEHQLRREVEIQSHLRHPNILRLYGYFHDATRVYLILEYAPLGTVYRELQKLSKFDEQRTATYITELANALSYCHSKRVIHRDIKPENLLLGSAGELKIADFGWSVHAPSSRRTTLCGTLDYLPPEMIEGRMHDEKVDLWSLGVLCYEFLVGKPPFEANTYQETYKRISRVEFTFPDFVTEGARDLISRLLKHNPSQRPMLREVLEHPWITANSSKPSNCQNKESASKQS

SRC = SRC (Homo sapiens, UniProt P12931)
EPHB4 = molecular target: T3, EPHB4 (Homo sapiens, UniProt P54760)
T3 sequence (P54760 16-987): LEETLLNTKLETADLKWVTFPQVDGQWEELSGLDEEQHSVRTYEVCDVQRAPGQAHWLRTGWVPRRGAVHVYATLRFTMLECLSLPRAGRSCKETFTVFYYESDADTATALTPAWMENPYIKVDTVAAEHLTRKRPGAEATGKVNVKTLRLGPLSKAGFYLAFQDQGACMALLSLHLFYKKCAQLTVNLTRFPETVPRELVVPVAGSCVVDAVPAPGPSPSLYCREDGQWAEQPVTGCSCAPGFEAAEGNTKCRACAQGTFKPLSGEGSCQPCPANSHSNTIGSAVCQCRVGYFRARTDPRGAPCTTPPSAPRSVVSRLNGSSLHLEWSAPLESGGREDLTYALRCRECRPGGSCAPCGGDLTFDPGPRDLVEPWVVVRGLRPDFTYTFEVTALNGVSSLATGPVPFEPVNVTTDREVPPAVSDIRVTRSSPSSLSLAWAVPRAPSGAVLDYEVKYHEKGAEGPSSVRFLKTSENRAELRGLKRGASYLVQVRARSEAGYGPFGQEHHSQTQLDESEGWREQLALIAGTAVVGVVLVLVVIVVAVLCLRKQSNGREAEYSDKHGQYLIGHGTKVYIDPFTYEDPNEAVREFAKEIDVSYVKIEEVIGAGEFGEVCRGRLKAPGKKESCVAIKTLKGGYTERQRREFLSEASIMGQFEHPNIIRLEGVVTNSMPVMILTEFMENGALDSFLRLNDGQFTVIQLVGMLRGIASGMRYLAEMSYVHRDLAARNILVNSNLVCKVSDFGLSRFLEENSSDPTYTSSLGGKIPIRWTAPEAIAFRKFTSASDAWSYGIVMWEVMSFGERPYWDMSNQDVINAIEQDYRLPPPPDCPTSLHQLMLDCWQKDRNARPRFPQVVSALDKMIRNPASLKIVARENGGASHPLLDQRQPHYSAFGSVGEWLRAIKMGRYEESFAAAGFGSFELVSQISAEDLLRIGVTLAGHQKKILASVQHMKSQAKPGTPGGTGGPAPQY

AKT1 = AKT1 (Homo sapiens, UniProt P31749)
IGF1R = IGF1R (Homo sapiens, UniProt P08069)
TIE2 = TIE2 (Homo sapiens, UniProt Q02763)

**Q.** With “3-(indole-3-yl)-4-(3,4,5-trimethoxyphenyl)-1H-pyrrole-2,5-dione [Compound 1, reference compound]” as the substance, how does the IC50 (ARK5) read?
**A.** 16 µM

**Q.** And the IC50 (Aurora-A)?
**A.** 46 µM

**Q.** What about the IC50 (SRC) of the same substance?
**A.** 14 µM

**Q.** What about the IC50 (EPHB4) of the same substance?
**A.** 53 µM

**Q.** And the IC50 (AKT1)?
**A.** > 100 µM

**Q.** What about the IC50 (IGF1R) of the same substance?
**A.** 22 µM

**Q.** And the IC50 (TIE2)?
**A.** 5 µM
